Drawing on patent US9150578B2, “5,8-dihydro-6H-pyrazolo[3,4-h]quinazolines as IGF-1R/IR inhibitors” (Boehringer Ingelheim International GmbH, priority 2012, dated 2015), this text covers EC50 for 63 molecules.

A value given as a limit tells only on which side of the number the result lay.

The subject of the assay is TC-71 (Ewing's sarcoma) cells. Nature of the assay: Cell proliferation assay, TC-71 (Alamar Blue). To be noted: TC-71 cells, 72 h, read-out: TC71 EC50 range. Type of assay: cell-based. As to the method: Cell Proliferation Assays
Published scientific data has described that interference with the Insulin-like Growth Factor-1 Receptor (IGF-1R) signaling pathway reduces the proliferation of TC-71 cells. Therefore TC-71 cells served as a positive control cell line for monitoring the activity of compounds against IGF-1R-mediated cell proliferation.
2000 TC-71 cells or 1000 HCT 116 cells were seeded per well in 180 μL IMDM+10% foetal calf serum (FCS)+penicillin/streptomycin into 96-well microtitre plates. The plates were placed in a cell culture incubator (37° C. in a humidified atmosphere of 95% […]/5 CO2) overnight. The following day, serial dilutions of compounds, prepared in duplicates, were transferred onto the cell layers (controls without compound). The cells were cultivated for a further 72 h in the cell culture incubator. 20 μL of Alamar Blue™ (Serotec Ltd, Düsseldorf, Germany) was added to each well and the plates incubated for 7 h in the cell culture incubator.
As for `CCn1ccc(Nc2ncc3c(n2)-c2c(nn(C)c2-c2ccc(-c4cnn(CCN(C)C)c4)cc2)CC3)n1` [I-062], the EC50 is under 0.01 µM. Take `CC(C)Cn1cc(-c2ccc(-c3c4c(nn3C)CCc3cnc(Nc5ccn(CCN(C)C)n5)nc3-4)cc2)cn1` [I-060]: the EC50 is under 0.01 µM. To `COCCCn1ccc(Nc2ncc3c(n2)-c2c(nn(C)c2Cc2cccc(-c4cnn(C)c4)c2)CC3)n1` [I-036] belongs under 0.01 µM; to `CCn1ccc(Nc2ncc3c(n2)-c2c(nn(C)c2-c2ccc(-c4cnn(Cc5ccccc5)c4)cc2)CC3)n1` [I-057], under 0.01 µM. Consider `COCCn1ccc(Nc2ncc3c(n2)-c2c(nn(C)c2-c2ccc(-c4cnn(C(C)C)c4)cc2)CC3)n1` [I-054], for which the EC50 is under 0.01 µM. `CCn1ccc(Nc2ncc3c(n2)-c2c(nn(C)c2-c2ccc(-c4cnn(CCN5CCOCC5)c4)cc2)CC3)n1` [I-112]: the EC50 was under 0.01 µM. Regarding `Cn1cc(-c2cccc(Cc3c4c(nn3C)CCc3cnc(Nc5ccn(C)n5)nc3-4)c2)cn1` [I-012], the EC50 was under 0.01 µM. Turning to `CCn1ccc(Nc2ncc3c(n2)-c2c(nn(C)c2-c2ccc(-c4cnn(CCN5CCN(CCO)CC5)c4)cc2)CC3)n1` [I-114], the EC50 is under 0.01 µM.

Take `CCCn1cc(-c2ccc(-c3c4c(nn3C)CCc3cnc(Nc5ccc(C(=O)O)cc5OC)nc3-4)cc2)cn1` [I-128]: the EC50 was under 0.01 µM.

As for `COc1cc(C(=O)N(C)C)ccc1Nc1ncc2c(n1)-c1c(nn(C)c1-c1ccc(-c3cnn(C)c3)cc1)CC2` [I-131], the EC50 was under 0.01 µM. As for `COCCn1ccc(Nc2ncc3c(n2)-c2c(nn(C)c2-c2ccc(-c4cnn(CCO)c4)cc2)CC3)n1` [I-093], the EC50 was under 0.01 µM.

Regarding `COc1cc(C(=O)NC[C@@H]2CCCO2)ccc1Nc1ncc2c(n1)-c1c(nn(C)c1-c1ccc(-c3cnn(C)c3)cc1)CC2` [I-162], the EC50 was under 0.01 µM.

`CN(C)CCn1cc(Nc2ncc3c(n2)-c2c(nn(C)c2-c2ccc(-c4cnn(C)c4)cc2)CC3)cn1` [I-076]: the EC50 is under 0.01 µM.

In the case of `COCCn1cc(-c2ccc(-c3c4c(nn3C)CCc3cnc(Nc5ccn(CC(=O)N(C)C)n5)nc3-4)cc2)cn1` [I-097], the EC50 was under 0.01 µM. `CCn1ccc(Nc2ncc3c(n2)-c2c(nn(C)c2-c2ccc(-c4cnn(C)c4C)cc2)CC3)n1` [I-067]: the EC50 is 0.01 to 0.1 µM. `CCn1ccc(Nc2ncc3c(n2)-c2c(nn(C)c2-c2ccc(-c4c(C)n[nH]c4C)cc2)CC3)n1` [I-069]: the EC50 fell in the range of 0.01 to 0.1 µM.

`COc1cc(C(=O)NCCN(C)C)ccc1Nc1ncc2c(n1)-c1c(nn(C)c1-c1ccc(-c3cnn(C)c3)cc1)CC2` [I-134]: the EC50 was under 0.01 µM. Consider `CCn1cc(-c2ccc(-c3c4c(nn3C)CCc3cnc(Nc5ccn(CCOC)n5)nc3-4)cc2)cn1` [I-090], for which the concentration giving a half-maximal response (EC50) is under 0.01 µM.

Consider `CCCn1cc(-c2ccc(-c3c4c(nn3C)CCc3cnc(Nc5ccn(CCN(C)C)n5)nc3-4)cc2)cn1` [I-061], for which the EC50 is under 0.01 µM. In the case of `COc1cc(C(=O)N(C)CCN(C)C)ccc1Nc1ncc2c(n1)-c1c(nn(C)c1-c1ccc(-c3cnn(C)c3)cc1)CC2` [I-155], the EC50 is under 0.01 µM. To `CCn1cc(Nc2ncc3c(n2)-c2c(nn(C)c2-c2ccc(-c4cnn(C)c4)cc2)CC3)cn1` [I-024] belongs under 0.01 µM. In the case of `COCCN1CCN(CCn2ccc(Nc3ncc4c(n3)-c3c(nn(C)c3Cc3cccc(-c5cnn(C)c5)c3)CC4)n2)CC1` [I-033], the EC50 is under 0.01 µM. As to `COCCN1CCN(CCn2ccc(Nc3ncc4c(n3)-c3c(nn(C)c3-c3ccc(-c5cnn(C)c5)cc3)CC4)n2)CC1` [I-030], the EC50 is under 0.01 µM. Regarding `COCCCNC(=O)c1ccc(Nc2ncc3c(n2)-c2c(nn(C)c2-c2ccc(-c4cnn(C)c4)cc2)CC3)c(OC)c1` [I-154], the EC50 was under 0.01 µM. With `CCn1ccc(Nc2ncc3c(n2)-c2c(nn(C)c2-c2ccc(-c4cnn(CCN(C)CCOC)c4)cc2)CC3)n1` [I-120], the EC50 was under 0.01 µM.

For `Cn1cc(Nc2ncc3c(n2)-c2c(nn(C)c2-c2ccc(-c4cnn(C)c4)nc2)CC3)cn1` [I-185], the EC50 is under 0.01 µM. With `CCS(=O)(=O)CCn1ccc(Nc2ncc3c(n2)-c2c(nn(C)c2Cc2cccc(-c4cnn(C)c4)c2)CC3)n1` [I-038], the EC50 is under 0.01 µM. To `CCn1ccc(Nc2ncc3c(n2)-c2c(nn(C)c2-c2ccc(-c4cnn(CCN5CCN(CCOC)CC5)c4)cc2)CC3)n1` [I-117] belongs under 0.01 µM. `COCCn1cc(Nc2ncc3c(n2)-c2c(nn(C)c2-c2ccc(-c4cnn(C)c4)nc2)CC3)cn1` [I-186]: the EC50 fell in the range of 0.01 to 0.1 µM. To `CCNC(=O)c1ccc(Nc2ncc3c(n2)-c2c(nn(C)c2-c2ccc(-c4cnn(C)c4)cc2)CC3)c(OC)c1` [I-157] belongs under 0.01 µM. To `COCCN(C)C(=O)Cn1ccc(Nc2ncc3c(n2)-c2c(nn(C)c2-c2ccc(-c4cnn(C)c4)cc2)CC3)n1` [I-141] belongs under 0.01 µM; to `CN(C)CCn1ccc(Nc2ncc3c(n2)-c2c(nn(C)c2-c2ccc(-c4cnn(CC(=O)N(C)C)c4)cc2)CC3)n1` [I-084], under 0.01 µM; to `CCn1ccc(Nc2ncc3c(n2)-c2c(nn(C)c2-c2ccc(-c4cnn(CCCOC)c4)cc2)CC3)n1` [I-082], under 0.01 µM. In the case of `Cn1cc(-c2ccc(-c3c4c(nn3C)CCc3cnc(Nc5ccn(CCCO)n5)nc3-4)cc2)cn1` [I-004], the EC50 is under 0.01 µM. On to `Cn1cc(-c2ccc(-c3c4c(nn3C)CCc3cnc(Nc5ccn(CCN6CCOCC6)n5)nc3-4)cc2)cn1` [I-029], for which the EC50 was under 0.01 µM. In the case of `CCn1cc(-c2cccc(Cc3c4c(nn3C)CCc3cnc(Nc5ccn(C)n5)nc3-4)c2)cn1` [I-104], the EC50 is under 0.01 µM. Turning to `CN(C)C(=O)Cn1ccc(Nc2ncc3c(n2)-c2c(nn(C)c2Cc2cccc(-c4cnn(C)c4)c2)CC3)n1` [I-014], the EC50 is 0.01 to 0.1 µM. With `Cn1cc(-c2cccc(Cc3c4c(nn3C)CCc3cnc(Nc5ccn(CCCn6ccnc6)n5)nc3-4)c2)cn1` [I-037], the EC50 was under 0.01 µM. `CCn1ccc(Nc2ncc3c(n2)-c2c(nn(C)c2-c2ccc(-c4cnn(CC(C)C)c4)cc2)CC3)n1` [I-055]: the EC50 was under 0.01 µM. To `CC(C)n1cc(-c2ccc(-c3c4c(nn3C)CCc3cnc(Nc5ccn(C)n5)nc3-4)cc2)cn1` [I-006] belongs under 0.01 µM.

Turning to `CCn1ccc(Nc2ncc3c(n2)-c2c(nn(C)c2-c2ccc(-c4cnn(CCOC)c4)cc2)CC3)n1` [I-080], the EC50 is under 0.01 µM. Take `CCn1ccc(Nc2ncc3c(n2)-c2c(nn(C)c2-c2ccc(-c4cnn(CCN5CCCC5)c4)cc2)CC3)n1` [I-116]: the EC50 lay in the range of 0.1 to 0.2 µM.

Take `CCn1ccc(Nc2ncc3c(n2)-c2c(nn(C)c2Cc2cccc(-c4cn[nH]c4)c2)CC3)n1` [I-078]: the EC50 is under 0.01 µM. Take `CCCn1cc(-c2cccc(Cc3c4c(nn3C)CCc3cnc(Nc5ccn(CC)n5)nc3-4)c2)cn1` [I-087]: the EC50 is under 0.01 µM.

Regarding `CN(C)CCNC(=O)Cn1ccc(Nc2ncc3c(n2)-c2c(nn(C)c2-c2ccc(-c4cnn(C)c4)cc2)CC3)n1` [I-137], the EC50 lay within 0.01 to 0.1 µM. `COc1cc(N2CCN(CCO)CC2)ccc1Nc1ncc2c(n1)-c1c(nn(C)c1-c1ccc(-c3cnn(C)c3)cc1)CC2` [I-174]: the EC50 was under 0.01 µM. In the case of `CCn1ccc(Nc2ncc3c(n2)-c2c(nn(C)c2-c2ccc(-c4cnn(CC(=O)N(C)C)c4)cc2)CC3)n1` [I-053], the EC50 was under 0.01 µM. Regarding `Cn1cc(-c2ccc(-c3c4c(nn3C)CCc3cnc(Nc5ccn(CC(=O)N6CCCC6)n5)nc3-4)cc2)cn1` [I-139], the EC50 is under 0.01 µM. To `Cn1cc(-c2ccc(-c3c4c(nn3C)CCc3cnc(Nc5ccn(C)n5)nc3-4)cc2)cn1` [I-071] belongs under 0.01 µM. Consider `CC(C)n1cc(Nc2ncc3c(n2)-c2c(nn(C)c2-c2ccc(-c4cnn(C)c4)nc2)CC3)cn1` [I-189], for which the EC50 is under 0.01 µM. For `CCCn1cc(-c2ccc(-c3c4c(nn3C)CCc3cnc(Nc5ccn(CC(=O)N(C)C)n5)nc3-4)cc2)cn1` [I-096], the EC50 is under 0.01 µM. In the case of `CCn1ccc(Nc2ncc3c(n2)-c2c(nn(C)c2-c2ccc(-c4cnn(CCN5CCNCC5)c4)cc2)CC3)n1` [I-118], the EC50 is under 0.01 µM.

Take `COc1cc(C(=O)NC2CCN(C)CC2)ccc1Nc1ncc2c(n1)-c1c(nn(C)c1-c1ccc(-c3cnn(C)c3)cc1)CC2` [I-133]: the EC50 is under 0.01 µM. For `COc1cc(C(=O)NCCN2CCN(C)CC2)ccc1Nc1ncc2c(n1)-c1c(nn(C)c1-c1ccc(-c3cnn(C)c3)cc1)CC2` [I-152], the EC50 was under 0.01 µM. Take `Cn1cc(-c2ccc(-c3c4c(nn3C)CCc3cnc(Nc5cnn(CCN6CCOCC6)c5)nc3-4)cc2)cn1` [I-025]: the EC50 was under 0.01 µM. Regarding `COCCn1cc(-c2ccc(-c3c4c(nn3C)CC(C)c3cnc(Nc5ccn(C)n5)nc3-4)cc2)cn1` (racemic) [I-103], the EC50 was under 0.01 µM.

As for `CCn1cc(-c2cccc(Cc3c4c(nn3C)CCc3cnc(Nc5ccn(CC)n5)nc3-4)c2)cn1` [I-086], the EC50 is under 0.01 µM.

Take `CCn1ccc(Nc2ncc3c(n2)-c2c(nn(C)c2-c2ccc(-c4cnn(C)c4)cc2)CC3)n1` [I-065]: the EC50 was under 0.01 µM. Take `COCCn1ccc(Nc2ncc3c(n2)-c2c(nn(C)c2-c2ccc(-c4cnn(C)c4)cc2)CC3)n1` [I-008]: the EC50 is under 0.01 µM.

`Cn1cc(-c2ccc(-c3c4c(nn3C)CCc3cnc(Nc5cnn(CCN6CCOCC6)c5)nc3-4)cn2)cn1` [I-188]: the EC50 was in the range of 0.01 to 0.1 µM. To `CC1Cc2nn(C)c(-c3ccc(-c4cnn(C(C)C)c4)cc3)c2-c2nc(Nc3ccn(C)n3)ncc21` (racemic) [I-102] belongs under 0.01 µM. As to `Cc1cc(Nc2ncc3c(n2)-c2c(nn(C)c2Cc2cccc(-c4cnn(C)c4)c2)CC3)nn1C` [I-019], the EC50 was under 0.01 µM. Turning to `CN(C)CCn1ccc(Nc2ncc3c(n2)-c2c(nn(C)c2-c2ccc(-c4cnn(CCO)c4)cc2)CC3)n1` [I-085], the EC50 is under 0.01 µM.
